For 3 substances, Kd and IC50 results are on record in patent US7261876B2, “Multivalent constructs for therapeutic and diagnostic applications” (Bracco International BV, priority 2002, dated 2007).

Sequences of proteins named here, by UniProt entry; tags and fusion partners are left off. Residues count along the entry.
UniProt P35968, 20-1356: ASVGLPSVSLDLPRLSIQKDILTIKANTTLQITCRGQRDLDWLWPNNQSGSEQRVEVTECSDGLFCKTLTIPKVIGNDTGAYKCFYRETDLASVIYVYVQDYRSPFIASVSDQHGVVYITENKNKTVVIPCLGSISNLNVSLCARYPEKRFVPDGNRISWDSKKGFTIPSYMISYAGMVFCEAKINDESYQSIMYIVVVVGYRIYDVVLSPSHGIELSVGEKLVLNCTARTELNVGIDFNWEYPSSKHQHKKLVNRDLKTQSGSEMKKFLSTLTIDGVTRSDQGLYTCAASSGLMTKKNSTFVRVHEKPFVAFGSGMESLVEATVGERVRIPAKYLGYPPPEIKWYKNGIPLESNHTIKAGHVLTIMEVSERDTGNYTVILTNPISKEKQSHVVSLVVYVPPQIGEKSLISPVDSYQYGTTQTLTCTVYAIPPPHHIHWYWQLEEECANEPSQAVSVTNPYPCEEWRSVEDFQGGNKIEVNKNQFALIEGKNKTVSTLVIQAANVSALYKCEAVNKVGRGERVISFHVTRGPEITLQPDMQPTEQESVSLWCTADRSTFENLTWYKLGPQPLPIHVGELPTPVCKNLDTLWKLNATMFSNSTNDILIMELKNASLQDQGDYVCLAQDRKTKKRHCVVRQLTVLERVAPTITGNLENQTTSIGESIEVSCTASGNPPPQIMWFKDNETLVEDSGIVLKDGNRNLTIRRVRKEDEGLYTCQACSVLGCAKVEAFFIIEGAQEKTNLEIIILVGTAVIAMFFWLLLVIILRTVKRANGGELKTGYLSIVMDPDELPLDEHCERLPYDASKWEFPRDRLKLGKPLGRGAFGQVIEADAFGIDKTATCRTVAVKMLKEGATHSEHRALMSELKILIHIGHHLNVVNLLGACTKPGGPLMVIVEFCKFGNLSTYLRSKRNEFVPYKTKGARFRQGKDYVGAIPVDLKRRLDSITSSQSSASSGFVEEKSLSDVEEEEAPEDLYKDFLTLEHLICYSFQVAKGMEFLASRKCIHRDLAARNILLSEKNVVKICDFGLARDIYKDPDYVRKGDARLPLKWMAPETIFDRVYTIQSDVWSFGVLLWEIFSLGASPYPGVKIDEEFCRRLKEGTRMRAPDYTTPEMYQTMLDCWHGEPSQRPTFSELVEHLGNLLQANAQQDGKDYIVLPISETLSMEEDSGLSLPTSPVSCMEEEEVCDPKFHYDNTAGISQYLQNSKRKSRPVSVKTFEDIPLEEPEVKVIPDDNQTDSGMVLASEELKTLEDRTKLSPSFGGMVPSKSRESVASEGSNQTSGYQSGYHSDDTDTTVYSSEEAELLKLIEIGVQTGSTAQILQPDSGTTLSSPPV

Broadly, the Kd is the concentration at which binding is half-saturated. Low values mean a tighter complex, high ones a looser complex. One may read the IC50 as the midpoint of a concentration-inhibition curve.

Read-outs that look alike come from different tables or passages of the source.

Assay [1] has as its target KDR expressed in transiently-transfected 293H cells (Homo sapiens, UniProt P35968). Kind of assay: Binding of biotinylated peptide/neutravidin (avidin) HRP complexes to KDR-transfected 293H cells. The note with it: tetrameric peptide/neutravidin HRP complex; saturation binding, KDR minus mock.
In another assay the target is T1, KDR-expressing cells (Homo sapiens, UniProt P35968).
T1 construct: Both PCR products were digested with Not1 and ligated together to create the full-length receptor; V5-His (encoded by the vector); expressed in transfected cells; host or cells: 293H cells (Invitrogen cat. # 11631), transient lipofectamine 2000 transfection
The experiment in a line: Displacement assay competing with P12-XB/streptavidin-HRP complex for binding to KDR-expressing cells. The note with it: complex concentration 5.5 nM.

In assay [1], “Ac-AGPTWCEDDWYYCWLFGTJK-(Biotin-JJ-)-NH2 [P12-F-XB]” displayed a Kd of 0.00302 µM. Regarding “Ac-AQDWYYDEILSMADQLRHAFLSGG-GGGK-(Biotin-JJ-)-NH2 [P13-XB]”, the IC50 at KDR-expressing cells turned out to be 0.093 µM. Turning to Ac-AQDWYYDEILJGRGRGGRGG-NH2 [F3], the IC50 at KDR-expressing cells (read-out: IC50) amounted to 0.175 µM.
